The experiment is filed under the species Rattus norvegicus. In words: animal or person. Conditions: intraduodenal, read-out: Inhibition.

On to `COc1ccc2c(c1)c(CC(=O)O)c(C)n2C(=O)c1ccc(Cl)cc1` [INDOMETHACIN], for which the inhibition in vivo at 1 mg/kg came out at 79%.

Values taken from ChEMBL document CHEMBL1130598, “Pyrroles and other heterocycles as inhibitors of p38 kinase” (Bioorg Med Chem Lett, 1998).
